Values quoted from earlier work, collected in patent US20210069230A1, “SYNERGISTIC DRUG COMBINATIONS PREDICTED FROM GENOMIC FEATURES AND SINGLE-AGENT RESPONSE PROFILES” (THE BROAD INSTITUTE, INC., priority 2018, published 2021).

Sequences of proteins named here, by UniProt entry; tags and fusion partners are left off.
UniProt O35678, whole entry: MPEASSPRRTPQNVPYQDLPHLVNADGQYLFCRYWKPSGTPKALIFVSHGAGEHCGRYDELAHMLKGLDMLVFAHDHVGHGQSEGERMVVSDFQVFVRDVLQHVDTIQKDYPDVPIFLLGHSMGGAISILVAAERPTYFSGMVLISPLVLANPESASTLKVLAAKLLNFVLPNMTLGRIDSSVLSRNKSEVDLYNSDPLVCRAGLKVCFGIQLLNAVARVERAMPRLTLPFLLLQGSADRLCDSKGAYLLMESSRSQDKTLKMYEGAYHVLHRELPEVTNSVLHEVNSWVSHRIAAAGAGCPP

Target: Monoacylglycerol lipase (MAGL) (Mus musculus, UniProt O35678)
Settings: dose of 4 mg/kg; cited from earlier work

O=C(Oc1ccc([N+](=O)[O-])cc1)N1CCC(C(O)(c2ccc3c(c2)OCO3)c2ccc3c(c2)OCO3)CC1 [JZL184, 4-nitrophenyl 4-(dibenzo[d][1,3]dioxol-5-yl(hydroxy)methyl)piperidine-1-carboxylate]
MAGL inhibited: 75%
